## Yeast mating assay 1: variants of the scFv Ab-14

Source: Engelhart et al. 2022 (doi:10.1038/s41597-022-01779-4), MIT Lincoln Laboratory and A-Alpha Bio; data file from the FLAb repository.

The target is the same throughout: PDVDLGDISGINAS, from the HR2 region of SARS-CoV-2 spike.

Parent: Ab-14, a human scFv built as VH, a (GGGGS)3 linker, VL. Only the CDRs of the light chain vary.
VH: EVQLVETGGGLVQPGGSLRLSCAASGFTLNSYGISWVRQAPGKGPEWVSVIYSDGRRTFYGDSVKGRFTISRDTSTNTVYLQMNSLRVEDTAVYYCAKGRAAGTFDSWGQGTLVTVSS
VL: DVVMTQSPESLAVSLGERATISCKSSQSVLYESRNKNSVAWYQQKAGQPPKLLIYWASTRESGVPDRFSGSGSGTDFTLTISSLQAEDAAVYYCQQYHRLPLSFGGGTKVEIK

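The parent was found by panning a naive human phage display library on the peptide. Library AAYL50 holds single substitutions and randomly drawn double and triple substitutions in the CDRs. AlphaSeq pools MATa yeast showing the antibodies with MATalpha yeast showing the peptide. Pairs that bind mate more often; barcode pairs of the diploids are counted by sequencing. The ratio of observed to expected reads was calibrated, replicate by replicate, on BCL2-family standards whose Kd was known from biolayer interferometry. Each pool was mated in three replicate cultures.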

The parent's light chain CDRs are KSSQSVLYESRNKNSVA, WASTRES, QQYHRLPLS; each variant's own CDRs replace them letter for letter.
Scale: log10 of Kd in nM, estimated from mating counts; low values are strong binders.
Averages over replicates are reported, and they cover detected replicates only.
A pair that was not seen in that replicate is written "nd"; this usually means weak binding, but a binder can also be missed.
As a blank, each scFv also met three strains without target: over library AAYL50, 18% of these pairings were detected, typically at 4.19 and seldom below 2.99. Also given: how often the same scFv was detected with the empty control strains, with their mean in brackets.
In this assay the parent's reference entry averaged 0.65; its copy inside this library read 1.68.

CDR-L1	CDR-L2	CDR-L3	log10 Kd (nM) by replicate	mean, log10 nM	empty controls
KSSQSVLYESRNKNSVA	WAWFRES	QQYHRLILS	nd / 3.58 / 5.00	4.29	3/9 (3.82)
KSSQSVLQESRNANSYA	WASTRES	QQYHRLPLS	3.59 / 3.63 / 4.13	3.78	4/9 (4.55)
KSSQSVLRESRNKNSVA	WASYRES	QQYHRLPLS	2.57 / 2.57 / 2.85	2.66	1/9 (3.74)
KSSQSVLYESRNKNSVA	DASTRES	QQYHRLELY	nd / nd / nd	nd	0/9
KSSQSVLYESREIHSVA	WASTRES	QQYHRLPLS	1.28 / 1.43 / 1.78	1.50	3/9 (3.81)
KSSQSVLYESRNKNSVE	WASTRES	QIYHRLPLS	2.38 / nd / nd	2.38	0/9
KSSQSVLYESRNKNSVA	WASWRES	QQYHRLPLG	nd / nd / nd	nd	0/9
KSSQSVLYEDRNKNSVA	WPSTRES	QQYHRLPLS	5.01 / 4.60 / 5.39	5.00	6/9 (4.55)
KSSQSVLYESRNDNSVA	IASTRES	QQYHRLPLS	5.87 / 4.35 / 5.44	5.22	5/9 (5.17)
HSSQSVLYESRNKNSVA	WASTRES	QQYHHLPLS	0.59 / 0.83 / 0.82	0.75	1/9 (5.24)
KSSQSVLYESQNRNSVA	RASTRES	QQYHRLPLS	nd / nd / nd	nd	0/9
KSSQDVLIESPNKNSVA	WASTRES	QQYHRLPLS	1.74 / 1.80 / 1.89	1.81	6/9 (4.99)
KSSQLVLYESRNKNSVA	AAKTRES	QQYHRLPLS	0.07 / 0.40 / 0.25	0.24	3/9 (5.49)
ISSQSVLYESRNKNSVA	WASTREM	SQYHRLPLS	nd / nd / nd	nd	0/9
KSSQSVLYESRNKNSWA	WASTKES	QQYHRLPLS	nd / nd / nd	nd	0/9
ASSLSVLYESRNKNSVA	WASTRES	QLYHRLPLS	nd / nd / nd	nd	1/9 (4.56)
KSSQSGLYESRNCNSVA	WASTRES	RQYHRLPLS	5.16 / nd / 6.25	5.70	5/9 (4.36)
KSSQSVSYKSRNKNSVA	WASTRES	QQYHRLMLS	nd / nd / nd	nd	0/9
KSSQSVLYESLNQNSVA	WASTRSS	QQYHRLPLS	0.18 / 0.48 / 0.35	0.34	1/9 (3.68)
KSSQSVLYESRNKNSGK	WASTRES	QSYHRLPLS	3.93 / nd / nd	3.93	2/9 (3.61)
KSSQSVLYEWRNKNSVA	WASTRES	EQYHRRPLS	5.01 / 4.12 / 4.60	4.58	5/9 (4.91)
KSVQSPLYESRVKNSVA	WASTRES	QQYHRLPLS	nd / nd / 5.99	5.99	4/9 (4.29)
KSSQSVLYESYNKNSVA	WASTRET	QQYHRLPLM	0.45 / 0.72 / 0.65	0.61	3/9 (4.25)
KNSQSVLYESRNKNSVA	WASTRES	QQYHRLPSS	1.83 / 2.02 / 2.01	1.95	1/9 (3.70)
KSSQSVLYESGNKNSVA	WASARES	QQYHRLPLW	2.72 / 2.79 / 3.24	2.92	4/9 (4.73)
KSSQSVLYESRNKNSVA	SASTREH	QQKHRLPLS	nd / nd / nd	nd	0/9
LSSQSVNYESRMKNSVA	WASTRES	QQYHRLPLS	1.65 / 1.79 / 1.64	1.70	2/9 (3.93)
KSSRSVLYESRNKNSVA	WASTRES	QQYHRSPPS	2.84 / 2.19 / 2.68	2.57	6/9 (4.30)
KSSQSVGYESRNKNSVA	WASTREK	QQGHRLPLS	nd / nd / nd	nd	1/9 (3.04)
KSSQSVPYESRNKNSVN	WASTREG	QQYHRLPLS	nd / nd / nd	nd	1/9 (3.70)
KSSQSVLYESRNKRSVE	WASERES	QQYHRLPLS	nd / nd / nd	nd	3/9 (4.66)
KYSQSVLYESRNKNSVA	WRSTRES	QQYHMLPLS	2.36 / nd / 1.51	1.93	0/9
NSSQSVLYESRNKNFVA	WASTRES	NQYHRLPLS	nd / nd / nd	nd	1/9 (3.61)

Again, the first 2 entries without any signal:

{"CDR-L1": "KSSQSVLYESRNKNSVA", "CDR-L2": "DASTRES", "CDR-L3": "QQYHRLELY", "log10 Kd (nM) by replicate": "nd / nd / nd", "mean, log10 nM": "nd", "empty controls": "0/9"}
{"CDR-L1": "KSSQSVLYESRNKNSVA", "CDR-L2": "WASWRES", "CDR-L3": "QQYHRLPLG", "log10 Kd (nM) by replicate": "nd / nd / nd", "mean, log10 nM": "nd", "empty controls": "0/9"}